miR-21 reporter = raises the signal of a miR-21 reporter | HeLa miR-21 FLuc reporter, luciferase, 48 h | Potency, µM (highest dose often 38.3 µM), inactives show at the highest dose reporter change, positive = more light | 340,000 tested, under 10 active | AID 2288; active = well fitted rising curve with a large enough effect; inconclusive = small, poorly fitted or top-dose-only effect; inactive = no such curve, though single readings can be large or run the other way;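 note: % of control where 0% means no effect; miR-21 action dims this reporter so a rising signal means less miR-21 action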
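HeLa miR-21-FLuc reporter line, endogenous miR-21; 2000 cells/well in DMEM/10% FBS; compound titration up to ~40uM final, 48 h, 37 degree Celsius; luciferase detection reagent, 15 min lysis, CCD luminescence.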
IL2 activator = activators of IL-2 | activation, % (series mostly up to about 46 µM) | 360,000 tested, 0.065% active | IL-2 activation reporter assay, cell-based qHTS; stimulated with anti-CD3/CD4/CD28 beads; in transgenic mouse T cells; in the data active means activation above about 50%; inconclusive means mostly about 30% to 49%; further: 0% is about no effect
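Quantitative HTS in unstimulated transgenic mouse T cells, with memory T cells as non-tolerant control and PMA/ionomycin as tolerance-bypass control. Compound pretreatment lasted 60 minutes before 18 h bead stimulation; EGFP/DsRed fluorescence read.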
A549 viability = A549 cytotoxicity, counter-screen for Nrf2 inhibitors. Potency, µM (titrated, usually from 46 µM), for inactives: at the highest dose activity change, negative = cytotoxicity, hits mostly inhibitors. 390,000 tested, 0.16% active. A549 ARE-Fluc cells, CellTiter-Fluor viability, 18-24 h; further: potency means the concentration at half of the fitted maximal effect; on the % scale 0 is the no-effect control and ±100 the full control effect
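A549 ARE-Fluc cells in 5% FBS OPTI-MEM, 5000 cells/well, rested 2 h then exposed to compounds in concentration-response for 18-24 h at 37 °C. Viability by CellTiter-Fluor fluorescence (Ex 405/Em 525) after 30 min; luciferase luminescence (BugLite, 15 min, RT) read afterwards.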
Nrf2 inh = Nrf2 pathway inhibition. A549 ARE-Fluc reporter, luciferase luminescence, 18-24 h. Potency, µM (highest dose often 46 µM), for the others: top-dose activity change, negative = inhibition, actives largely listed as inhibitors. 360,000 tested, 2.1% active. AID 504444; further: potency means the concentration at half of the fitted maximal effect; on the % scale 0 is the no-effect control and ±100 the full control effect; nearly all actives have a fitted effect of over 60% in size
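Cells were seeded and rested 2 h, then exposed to compounds for 18-24 h. CellTiter-Fluor was read first as a viability measure. BugLite was added 15 min before the final luminescent read of ARE-luciferase activity in A549 cells.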
Nrf2 activator = Nrf2 pathway activation. AREc32 ARE-luciferase reporter (MCF7-derived line), luminescence, 24 h. Potency, µM (doses to about 46.1 µM), without a hit: at the highest dose activation, actives largely listed as activators. 410,000 tested, 0.31% active. AID 624171; further: potency means the concentration at half of the fitted maximal effect; % of control where 0% means no effect; nearly all actives have a fitted effect of over 65% in size
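AREc32 cells carrying an ARE-driven firefly luciferase reporter were seeded at 1000 cells/well in OPTI-MEM with 5% FBS, then exposed to compound for 24 hr at 37 deg C. Luminescence was read with Steady-Glo after 30 min at RT.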
ClpP mod = qHTS Assay for Activators of ClpP; purified B. subtilis ClpP, FRET peptide cleavage, 20 min; Potency, µM (doses to about 57.5 µM), without a hit: top-dose activity change, negative = active; 340,000 tested, 1.9% active; active means well fitted falling curve with a large enough effect; inconclusive means small, poorly fitted or top-dose-only effect; inactive means no such curve, though single readings can be large or run the other way; further: potency means the concentration at half of the fitted maximal effect; the source files actives as falling curves though it sought activators and does not explain the sign; nearly all actives have a fitted effect of over 65% in size
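FRET quenching reversal measured ClpP activation: 10 microg/mL B. subtilis ClpP at pH 8 with the FRET-FV decapeptide, read at 430 nm after 320 nm excitation. The 20-min minus 0-min signal was scaled between DMSO/no-enzyme wells and ADEP (5.8 microM final).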
The depositor's hits bear a star; ? = inconclusive; / = no result given. In the library only some 3.7% were active in any assay of this set; here they are far more common. Unless noted, the call rests on the fitted dose curve; in most records, active means well fitted curve in the direction sought with a large enough effect; inconclusive means small, poorly fitted or top-dose-only effect, or another doubt; inactive means no such curve, though single readings can be large; an effect the other way counts as inactive or inconclusive.

entry | Molecule | miR-21 reporter | IL2 activator | A549 viability
1 | Cc1ccccc1-n1nnnc1SCc1ncc(-c2ccccc2)o1 | -14% | -2 | -10%
2 | CCOC(=O)Cn1c2ccccc2n2nc(CCC(=O)O)c(=O)nc12 | -6% | -1 | 1%
3 | O=C(O)CCc1nn2c3ccccc3nc2n(CCN2CCCCC2)c1=O | -4% | 0 | -8%
4 | O=C(O)CCc1nn2c3ccccc3n(CC(=O)c3ccccc3)c2nc1=O | -3% | -1 | 3%
5 | O=C(O)CCc1nc2ccccc2n(CCc2ccccc2)c1=O | -9% | 0 | -4%
6 | Cc1cnc2ccc(I)cc2c1/C=C/c1ccc(N(C)C)cc1 | / | / | /
7 | O=C(CCCCCn1c(=O)[nH]c2ccccc2c1=O)N1CCN(c2ccc(Cl)cc2)CC1 | ? | / | -21%
8 | NC(=O)c1c(NC(=O)COC(=O)c2ccc(S(=O)(=O)Nc3ccccc3)cc2)sc2c1CCCC2 | 0% | 0 | -3%
9 | Cc1ccc2[nH]c3c(N4CCN(Cc5ccccc5)CC4)ncnc3c2c1 | ? | -4 | ?
10 | c1ccc2c(c1)[nH]c1c(N3CCC4(CC3)OCCO4)ncnc12 | 18% | 0 | -18%
11 | c1ccc(CN2CCN(c3ncnc4c3[nH]c3ccccc34)CC2)cc1 | ? | -7 | -19%
12 | Cc1ccc2[nH]c3c(N4CCCCCC4)ncnc3c2c1 | 13% | / | /

entry | Nrf2 inh | Nrf2 activator | ClpP mod
1 | -8% | -1% | 32µM*
2 | 6% | 1% | /
3 | 6% | -1% | 18µM*
4 | / | -1% | 32µM*
5 | -30% | 0% | ?
6 | / | / | 0%
7 | / | 0% | ?
8 | -28% | 0% | 20µM*
9 | 9.2µM* | -2% | ?
10 | 13µM* | 3% | 28µM*
11 | 15µM* | 0% | ?
12 | / | / | /

Next records
entry | Molecule | miR-21 reporter | IL2 activator | A549 viability
13 | COc1cccc2[nH]c3c(N4CCC5(CC4)OCCO5)ncnc3c12 | -12% | 1 | 14%
14 | CCOc1ccc2[nH]c3c(N4CCN(c5ccccn5)CC4)ncnc3c2c1 | 10% | -3 | -18%
15 | c1ccc(CN2CCN(c3nc4ccccc4c4ccccc34)CC2)cc1 | -10% | 1 | 1%
16 | CCc1nn(CC(=O)NCCOC)c(=O)c2cc3cc(F)ccc3n12 | -9% | / | -6%
17 | CCOC(=O)c1c(NC(=O)c2cc3nc(-c4ccc(OC)cc4)cc(C(F)(F)F)n3n2)sc(C)c1C | 0% | / | 14%
18 | Cc1ccc(-n2nnnc2CNC(=O)c2cc(C(F)(F)F)cc(C(F)(F)F)c2)cc1C | -8% | / | 2%
19 | CCOC(=O)c1cc(-c2ccc(OC)cc2)n(CCC(=O)Nc2ccc(OC)cc2OC)c1C | 19% | / | -26%
20 | Cc1ccc(NS(=O)(=O)c2cc3c(cc2-c2ccco2)NC(=O)CO3)cc1C | / | / | 0%
21 | COC(=O)C1=C(C)NC(=O)NC1c1ccc(OC)c(OC)c1 (stereo unspecified) | / | -1 | /
22 | COC(=O)C1=C(C)NC(=S)N(C(C)=O)C1c1ccc(OC)c(OC)c1 (stereo unspecified) | -2% | -2 | -13%
23 | Cc1ccc(S(=O)(=O)c2nc(-c3ccccc3Cl)oc2N(C)C)cc1 | -56% | 0 | -12%
24 | CN(C)c1oc(-c2ccccc2Cl)nc1P(=O)(c1ccccc1)c1ccccc1 | 1% | -5 | ?

entry | Nrf2 inh | Nrf2 activator | ClpP mod
13 | 0% | 3% | 4%
14 | / | -1% | 28µM*
15 | -16% | 4% | ?
16 | -7% | -1% | -20%
17 | / | 4% | -6%
18 | / | 0% | 1%
19 | / | 6% | -4%
20 | 0% | / | /
21 | / | -1% | -4%
22 | 15µM* | 0% | /
23 | -4% | 0% | -14%
24 | ? | 3% | 20µM*

(further entries)
entry | Molecule | miR-21 reporter | IL2 activator | A549 viability
25 | COc1cccc(CSc2nc3n(n2)C(c2ccccc2C)C(C(=O)Nc2ccccc2OC)=C(C)N3)c1 (stereo unspecified) | 12% | / | -10%
26 | N#C/C(=N\Nc1cc(Cl)cc(Cl)c1)c1nnc2n1CCCCC2 | 2% | 0 | ?
27 | N#C/C(=C(/O)CCl)c1nnc2n1CCCCC2 | 7% | 1 | -1%
28 | COCCN(CCOC)C(=O)c1c[nH]c2ccc(S(=O)(=O)N(C)c3ccc(F)cc3)cc2c1=O | -4% | 1 | 7%
29 | COc1ccc(-c2nc(CS(=O)CC(=O)NCCc3ccc(Cl)cc3)c(C)o2)cc1OC (stereo unspecified) | -7% | / | -4%
30 | COc1ccc(-c2nc(CS(=O)CC(=O)NCc3ccc(F)cc3)c(C)o2)cc1OC (stereo unspecified) | 4% | / | -13%
31 | CCCN(CCC)CCNC(=O)CS(=O)Cc1nc(-c2ccc(OC)c(OC)c2)oc1C (stereo unspecified) | -1% | / | 1%
32 | COc1ccc(-c2nc(CS(=O)CC(=O)NCc3ccc(C)cc3)c(C)o2)cc1OC (stereo unspecified) | -9% | -3 | 1%
33 | CCc1ccc(CNC(=O)c2cnc3sc(N4CCCCCC4)nn3c2=O)cc1 | 3% | / | 5%
34 | N#Cc1ccc(S(=O)(=O)N2CCC(C(=O)N3CCN(Cc4ccc5c(c4)OCO5)CC3)CC2)cc1 | / | 0 | -8%
35 | COc1ccc(CN2CCN(C(=O)c3ccc(S(=O)(=O)N4CCCCCC4)cc3)CC2)cc1F | / | -4 | -20%
36 | N#Cc1ccc(CN2CCN(C(=O)c3ccc(S(=O)(=O)N4CCCCCC4)cc3)CC2)cc1 | / | 0 | -9%

entry | Nrf2 inh | Nrf2 activator | ClpP mod
25 | / | 0% | ?
26 | 18µM* | -1% | -2%
27 | 3% | 0% | -2%
28 | 3% | 0% | 32µM*
29 | 4% | 8% | ?
30 | -2% | 5% | 28µM*
31 | 8% | 4% | 32µM*
32 | -8% | 2% | 4%
33 | ? | -1% | -9%
34 | 18µM* | 0% | 1%
35 | 9.2µM* | 1% | 0%
36 | 16µM* | 0% | 0%

The list goes on; the last four above are carried over.
entry | Molecule | miR-21 reporter | IL2 activator | A549 viability
33 | CCc1ccc(CNC(=O)c2cnc3sc(N4CCCCCC4)nn3c2=O)cc1 | 3% | / | 5%
34 | N#Cc1ccc(S(=O)(=O)N2CCC(C(=O)N3CCN(Cc4ccc5c(c4)OCO5)CC3)CC2)cc1 | / | 0 | -8%
35 | COc1ccc(CN2CCN(C(=O)c3ccc(S(=O)(=O)N4CCCCCC4)cc3)CC2)cc1F | / | -4 | -20%
36 | N#Cc1ccc(CN2CCN(C(=O)c3ccc(S(=O)(=O)N4CCCCCC4)cc3)CC2)cc1 | / | 0 | -9%
37 | COc1cccc(CN2CCC(C(=O)N3CCN(Cc4ccc5c(c4)OCO5)CC3)CC2)c1OC | 1% | -4 | -9%
38 | O=C(c1ccc(S(=O)(=O)N2CCCCCC2)cc1)N1CCN(Cc2ccccc2)CC1 | / | 0 | -2%
39 | Cc1cc2c(s1)c1cnn(Cc3cccc(C)c3F)c(=O)c1n2C | / | / | 2%
40 | CN(Cc1ccccc1)C(=O)Cn1c(=O)c2cccn2c2ccc(F)cc21 | -8% | / | 10%
41 | CCOc1ccc(OCC)c(NC(=O)c2cnc3c(-c4ccccc4)c(C)nn3c2C)c1 | -1% | / | 8%
42 | CCOc1ccc2c(c1)c(=O)c(C(=O)c1ccc(C)cc1)cn2Cc1ccccc1OC | -2% | / | -10%
43 | COc1ccc2oc(C(=O)OCC(=O)NC(C)c3ccccc3)c(C)c2c1 (stereo unspecified) | -1% | 1 | 5%

entry | Nrf2 inh | Nrf2 activator | ClpP mod
33 | ? | -1% | -9%
34 | 18µM* | 0% | 1%
35 | 9.2µM* | 1% | 0%
36 | 16µM* | 0% | 0%
37 | -19% | 0% | 18µM*
38 | ? | 0% | 1%
39 | 5% | / | /
40 | -7% | 0% | ?
41 | ? | -1% | 4%
42 | -22% | 0% | -3%
43 | -15% | 1% | 3%
